Data on one compound can be found in US20150225369A1, “DDR2 INHIBITORS FOR THE TREATMENT OF OSTEOARTHRITIS” (Merck Patent GmbH, priority 2012, published 2015).

Protein sequences, listed by entry. Tags and fused reporters are not part of them. Residues count along the entry.
UniProt Q16832, 22-855 limits assumed: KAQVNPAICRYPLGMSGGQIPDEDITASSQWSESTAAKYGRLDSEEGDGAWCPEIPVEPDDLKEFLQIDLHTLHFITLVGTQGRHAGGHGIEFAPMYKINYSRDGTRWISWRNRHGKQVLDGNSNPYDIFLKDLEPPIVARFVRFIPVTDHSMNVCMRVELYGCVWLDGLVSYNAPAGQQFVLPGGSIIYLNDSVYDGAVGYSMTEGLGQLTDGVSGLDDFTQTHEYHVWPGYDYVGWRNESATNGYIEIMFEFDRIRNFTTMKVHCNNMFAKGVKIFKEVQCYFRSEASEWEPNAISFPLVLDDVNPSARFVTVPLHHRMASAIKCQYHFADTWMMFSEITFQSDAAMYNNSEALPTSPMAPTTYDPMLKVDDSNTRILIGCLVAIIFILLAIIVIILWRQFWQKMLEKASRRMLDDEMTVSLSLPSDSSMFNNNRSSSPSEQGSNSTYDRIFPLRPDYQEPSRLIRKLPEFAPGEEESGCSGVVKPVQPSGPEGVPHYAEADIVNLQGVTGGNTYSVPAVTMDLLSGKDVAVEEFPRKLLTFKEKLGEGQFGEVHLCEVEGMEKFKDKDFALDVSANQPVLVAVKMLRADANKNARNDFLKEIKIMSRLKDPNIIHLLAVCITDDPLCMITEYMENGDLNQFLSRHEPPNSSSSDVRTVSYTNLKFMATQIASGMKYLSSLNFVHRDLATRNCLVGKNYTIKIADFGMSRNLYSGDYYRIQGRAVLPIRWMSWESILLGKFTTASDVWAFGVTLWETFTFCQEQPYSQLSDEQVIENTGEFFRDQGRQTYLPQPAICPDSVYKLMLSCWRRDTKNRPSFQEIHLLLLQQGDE

The experiment concerns the target HEK293 transfected with human DDR2 (Homo sapiens, UniProt Q16832). The experiment in a line: Phospho-DDR2 cellular assay (collagen II induced DDR2 phosphorylation, ELISA). The following applies: read-out: IC50 [p-DDR2]. Format: cell-based. The procedure:
Assays were performed in a 384 well plate format, using cell line HEK293 transfected with human DDR2 (PLT460F_(DDR2)-P7-1)
Cells were seeded at a density of 10'000 cells/well in 384well poly-D-lysine coated Black/clear plate (Cellcoat Greiner) and incubated in DMEM medium in the presence of 10% fetal bovine serum at 37° C., 5% CO2 for 48 h. Medium was replaced by serum-free medium and cells were incubated at 37° C., 5% CO2 for 8 h. Compound to be tested in 5% DMSO or 5% DMSO and 50 μg/ml of chicken collagen II were added and cells were incubated at 37° C., 5% CO2 for 16 h
Cells were rinsed with ice-cold PBS, lysed with lysis buffer (M-PER Thermo #78501) for 30 min at room temperature and centrifuged for 1 min at 1000 RPM. In parallel, White High binding 384 well plates (Corning) were coated with mouse anti-human DDR2 capture antibody (R&D Systems kit DuoSet IC Human phospho-DDR2 ELISA), overnight at RT.
An aliquot of cell lysate was transferred to the coated plates and incubated for 2 h at RT. Plates were washed and mouse anti-phospho-tyrosine detection antibody (R&D Systems kit DuoSet IC Human phospho-DDR2 ELISA) conjugated to horse radish peroxidase (HRP) was added for 2 h at RT. Plates were washed and chemiluminescent substrate for HRP (Thermo) was added for 15 min at RT. Luminescence was measured on a luminometer.

`CNC(=O)c1cc(Oc2ccc(CNC(=O)Nc3cc(C(C)(C)C)on3)cc2)ccn1`: the IC50 worked out at 53 nM.
